# scFv variants of Ab-14 (light chain) against a SARS-CoV-2 spike peptide

Values reported by Engelhart et al. 2022, doi:10.1038/s41597-022-01779-4 (FLAb copy).

The target is the same throughout: PDVDLGDISGINAS, from the HR2 region of SARS-CoV-2 spike.

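The parent was found by panning a naive human phage display library on the peptide. AAYL50 was designed without a model: most single CDR substitutions and a random sample of double and triple ones. Affinity was read by AlphaSeq, a pooled yeast mating assay with surface-displayed partners. Pairs that bind mate more often; barcode pairs of the diploids are counted by sequencing. Scores were corrected for input abundance and mapped to Kd with protein pairs of known affinity run in the same pool. Mating was done three times.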

Each scFv is VH, the linker GGGGSGGGGSGGGGS, VL, as in the parent Ab-14, and differs from it in the CDRs of the light chain only.
VH: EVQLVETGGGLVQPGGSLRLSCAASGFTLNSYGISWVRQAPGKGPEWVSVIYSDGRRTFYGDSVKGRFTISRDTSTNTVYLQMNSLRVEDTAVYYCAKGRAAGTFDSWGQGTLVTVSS
VL: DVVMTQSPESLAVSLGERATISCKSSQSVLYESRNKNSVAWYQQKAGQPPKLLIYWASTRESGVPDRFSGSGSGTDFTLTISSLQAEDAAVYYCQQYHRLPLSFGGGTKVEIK

Changes read parent residue, position, new residue, counted from the first residue of the VL shown.
Affinities are written as log10 Kd with Kd in nM; a lower number is a better binder.
The mean shown is taken over the replicates in which the pair was detected.
"nd" means that the variant was in the library but no mating with the target was seen in that replicate; the authors take this as a sign of poor binding, and no number exists.
In this assay the parent's reference entry averaged 0.65; its copy inside this library read 1.68.
As a blank, each scFv also met three strains without target: over library AAYL50, 18% of these pairings were detected, typically at 4.19 and seldom below 2.99.

Variant S28C/V39S/W56Q showed 2.35, 2.17, 2.65 (mean 2.39).
Variant K36E/W56M/L100E showed nd, nd, nd.
Variant K24M/W56M/P101S showed nd, 3.50, 4.44 (mean 3.97).
Variant N37G/A57E/R99W showed 5.56, 3.48, nd (mean 4.52).
Variant V29P/R34H showed 1.30, 1.45, 1.57 (mean 1.44).
Variant S28E/S62N/Y97R showed nd, 4.10, nd.
Variant W56K/T59R/H98Y showed 0.44, 0.80, 0.66 (mean 0.63).
Variant R34I/W56P/L102N showed nd, nd, nd.
Variant Y97S/L100N showed nd, nd, nd.
Variant S33L/R60L/S103E showed 2.78, 2.64, 2.55 (mean 2.65).
Variant S38C/L102M/S103E showed 3.67, nd, nd.
Variant S28H/A40T/S58V showed nd, nd, nd.
Variant R60T/E61S/Q95F showed 2.54, 2.73, 2.78 (mean 2.68).
Variant S38H/L102H showed nd, nd, nd.
Variant Q27G/S58I/L100M showed 2.08, 2.20, 2.48 (mean 2.25).
Variant T59R/Q95V/Q96H showed 1.81, 1.79, 1.75 (mean 1.78).

Continued, with the values leading:

Read-out 3.83, nd, 5.57 (mean 4.70), from W56P/S62K/Q96L.
Read-out 4.51, nd, 4.19 (mean 4.35), from S33H/N37H/A57N.
Read-out 1.23, 1.23, 1.51 (mean 1.33), from L30M/Y31M/N37Q.
Read-out nd, nd, nd, from Y31R/T59N/S62G.
Read-out 1.79, 1.82, 1.98 (mean 1.86), from T59W/Q96P.
Read-out nd, nd, nd, from A57L/R60E/Q95N.
Read-out nd, 4.22, nd, from S28M/V39Y/L100K.
Read-out 1.23, 1.13, 1.16 (mean 1.17), from W56M/E61P/Q96N.
Read-out nd, nd, nd, from S38P/Q96T/P101W.
Read-out nd, 2.97, nd, from K24P/S26Y/Q95Y.
Read-out nd, nd, nd, from S38L/R99T/L102T.
Read-out nd, nd, nd, from N37L/V39G/Q96N.
Read-out 4.93, 4.04, nd (mean 4.48), from R34M/A57I/P101F.
Read-out 0.43, 0.65, 0.58 (mean 0.55), from W56D/P101S.
Read-out 1.59, 1.56, 2.01 (mean 1.72), from Q95K/Q96K/L102F.
Read-out nd, nd, nd, from K36W/R60W/Y97N.
Read-out 5.38, 3.80, 4.88 (mean 4.69), from W56L/S58T/R99E.

A selection of 4 entries from above:

changes,log10 Kd (nM) by replicate,"mean, log10 nM"
S38L/R99T/L102T,"nd, nd, nd",nd
S33H/N37H/A57N,"4.51, nd, 4.19",4.35
R60T/E61S/Q95F,"2.54, 2.73, 2.78",2.68
T59W/Q96P,"1.79, 1.82, 1.98",1.86